Values quoted from earlier work as cited in publication PMC5942357 (European Journal of Clinical Pharmacology, 2018).

Tested on: activation of TGFβ
Conditions: cited from earlier work

In the case of `Cc1cc(C)n(-c2cccc([C@H](CC(=O)O)CN3CC[C@@H](CCc4ccc5c(n4)NCCC5)C3)c2)n1` [GSK3008348], the “Effect on activation of TGFβ” value is listed as “inhibit the activation of TGFβ with a prolonged duration of action”.
